Reference: patent US20200255529A1 (PIONYR IMMUNOTHERAPEUTICS, published 2020)
Where two headings read alike, the source gives them in different places.

Sequences of proteins named here, by UniProt entry; tags and fusion partners are left off. Residues count along the entry.
UniProt Q9NP99, 21-205 limits assumed, stated change not applied: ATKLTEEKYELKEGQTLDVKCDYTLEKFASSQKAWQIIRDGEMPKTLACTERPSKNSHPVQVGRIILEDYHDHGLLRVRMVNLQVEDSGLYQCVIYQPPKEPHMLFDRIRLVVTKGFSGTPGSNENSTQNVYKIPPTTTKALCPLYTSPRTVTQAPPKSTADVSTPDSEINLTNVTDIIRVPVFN
UniProt Q9NP99, 21-234 limits assumed: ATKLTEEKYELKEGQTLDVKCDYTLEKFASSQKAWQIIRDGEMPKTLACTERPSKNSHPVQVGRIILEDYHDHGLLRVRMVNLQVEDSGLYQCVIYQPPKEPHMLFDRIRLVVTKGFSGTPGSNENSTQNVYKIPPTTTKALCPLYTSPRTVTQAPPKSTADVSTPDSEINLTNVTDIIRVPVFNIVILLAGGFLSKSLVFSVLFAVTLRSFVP

Experiments:
[1] = molecular target: T1, Human chimeric TREM1-mIgG Fc (human, UniProt Q9NP99 21-205, limits assumed); experiment: SPR (Biacore T200), avid format: human TREM1-mIgG Fc captured, antibody as analyte
T1 construct: also called human TREM1-mIgG Fc; not shown: mouse IgG Fc

[2] = molecular target: T2, His tagged-human TREM1 (human, UniProt Q9NP99 21-205, limits assumed); experiment: SPR (Biacore T200), monomeric format: antibody captured, His-tagged human TREM1 as analyte
T2 construct: also called monomeric human TREM1; not shown: His tag

[3] = molecular target: T3, human TREM1 on cells (human, UniProt Q9NP99 21-234); experiment: flow cytometry on human peripheral blood monocytes
T3 construct: Used for over-expressing cell lines and for primary human monocytes and neutrophils; also called hTREM1; human TREM1 over-expressing HEK293 or expi293 cells

[4] = molecular target: T3, human TREM1 on cells; experiment: flow cytometry on human peripheral blood monocytes; remark: listed apart in the source
[5] = molecular target: T1, Human chimeric TREM1-mIgG Fc; experiment: SPR (Biacore T200), avid format: human TREM1-mIgG Fc captured, antibody as analyte; remark: listed apart in the source
[6] = molecular target: T2, His tagged-human TREM1; experiment: SPR (Biacore T200), monomeric format: antibody captured, His-tagged human TREM1 as analyte; remark: listed apart in the source
[7] = molecular target: T2, His tagged-human TREM1; experiment: as above; remark: listed apart in the source
Protocol: All data were collected at 25° C. 10 mM HEPES pH 7.4, 150 mM NaCl, 3 mM EDTA, 0.05% (v/V) surfactant P20 was used as mobile buffer and for all dilution of mAbs. […] BIAevaluation software was used to perform the kinetic evaluation. Kinetic evaluation was through generation of sensorgrams which were fitted with a 1:1 Langmuir binding model.

[8] = molecular target: T1, Human chimeric TREM1-mIgG Fc; experiment: SPR (Biacore T200), avid format: human TREM1-mIgG Fc captured, antibody as analyte; remark: listed apart in the source
Protocol: All data were collected at 25° C. 10 mM HEPES pH 7.4, 150 mM NaCl, 3 mM EDTA, 0.05% (v/V) surfactant P20 was used as mobile buffer and for all dilution of mAbs. Anti-mouse Fc was immobilized on a CM4 biosensor chip (GE Healthcare) using amine coupling chemistry. […] After each cycle, the surface was regenerated by injecting a glycine HCl buffer (10 mM, pH 2.0). BIAevaluation software was used to perform the kinetic evaluation. Kinetic evaluation was through generation of sensorgrams which were fitted with a 1:1 Langmuir binding model.

[9] = molecular target: T3, human TREM1 on cells; experiment: flow cytometry on human neutrophils

B1: afucosylated PI-4026-5-M100 (parent) (antibody, human IgG1, kappa)
heavy: not shown
light: DIQLTQSPSSLSASVGDRVTITCSASSSVSYMHWYQQKPGKAPKLLLYTTSNLASGVPSRFSGSGSGTDYTLTISSLQPEDFATYYCHQWSGYPTFGQGTKLEIKRTVAAPSVFIFPPSDEQLKSGTASVVCLLNNFYPREAKVQWKVDNALQSGNSQESVTEQDSKDSTYSLSSTLTLSKADYEKHKVYACEVTHQGLSSPVTKSFNRGEC
modifications: afucosylated Fc glycan (made in FUT8-deficient expi293 cells)
Kd [1]: 0.55 nM | Kd [2]: 6.21 nM | EC50 [3]: 0.6 nM

B2: PI-4026-5-M100E (fucosylated) (antibody, human IgG1, kappa)
heavy: not shown
light: DIQLTQSPSSLSASVGDRVTITCSASSSVSYMHWYQQKPGKAPKLLLYTTSNLASGVPSRFSGSGSGTDYTLTISSLQPEDFATYYCHQWSGYPTFGQGTKLEIKRTVAAPSVFIFPPSDEQLKSGTASVVCLLNNFYPREAKVQWKVDNALQSGNSQESVTEQDSKDSTYSLSSTLTLSKADYEKHKVYACEVTHQGLSSPVTKSFNRGEC
EC50 [4]: 0.45 nM | Kd [5]: 0.19 nM | Kd [6]: 3.33 nM

B3: PI-4026-5-M100I (fucosylated) (antibody, human IgG1, kappa)
heavy: not shown
light: DIQLTQSPSSLSASVGDRVTITCSASSSVSYMHWYQQKPGKAPKLLLYTTSNLASGVPSRFSGSGSGTDYTLTISSLQPEDFATYYCHQWSGYPTFGQGTKLEIKRTVAAPSVFIFPPSDEQLKSGTASVVCLLNNFYPREAKVQWKVDNALQSGNSQESVTEQDSKDSTYSLSSTLTLSKADYEKHKVYACEVTHQGLSSPVTKSFNRGEC
EC50 [4]: 0.94 nM | Kd [5]: 0.88 nM | Kd [6]: 10.2 nM

B4: PI-4026-5-M100L (fucosylated) (antibody, human IgG1, kappa)
heavy: not shown
light: DIQLTQSPSSLSASVGDRVTITCSASSSVSYMHWYQQKPGKAPKLLLYTTSNLASGVPSRFSGSGSGTDYTLTISSLQPEDFATYYCHQWSGYPTFGQGTKLEIKRTVAAPSVFIFPPSDEQLKSGTASVVCLLNNFYPREAKVQWKVDNALQSGNSQESVTEQDSKDSTYSLSSTLTLSKADYEKHKVYACEVTHQGLSSPVTKSFNRGEC
notes: hIgG1, fucosylated; also called fucosylated parent of PI64052
EC50 [4]: 0.67 nM | Kd [5]: 0.27 nM | Kd [6]: 4.93 nM

B5: afucosylated PI-4026-5-M100E (antibody, human IgG1, kappa)
heavy: not shown
light: DIQLTQSPSSLSASVGDRVTITCSASSSVSYMHWYQQKPGKAPKLLLYTTSNLASGVPSRFSGSGSGTDYTLTISSLQPEDFATYYCHQWSGYPTFGQGTKLEIKRTVAAPSVFIFPPSDEQLKSGTASVVCLLNNFYPREAKVQWKVDNALQSGNSQESVTEQDSKDSTYSLSSTLTLSKADYEKHKVYACEVTHQGLSSPVTKSFNRGEC
modifications: afucosylated Fc glycan (made in FUT8-deficient expi293 cells)
Kd [1]: < 0.1 nM | Kd [2]: 3.74 nM | EC50 [3]: 0.3 nM

B6: afucosylated PI-4026-5-M100I (antibody, human IgG1, kappa)
heavy: not shown
light: DIQLTQSPSSLSASVGDRVTITCSASSSVSYMHWYQQKPGKAPKLLLYTTSNLASGVPSRFSGSGSGTDYTLTISSLQPEDFATYYCHQWSGYPTFGQGTKLEIKRTVAAPSVFIFPPSDEQLKSGTASVVCLLNNFYPREAKVQWKVDNALQSGNSQESVTEQDSKDSTYSLSSTLTLSKADYEKHKVYACEVTHQGLSSPVTKSFNRGEC
modifications: afucosylated Fc glycan (made in FUT8-deficient expi293 cells)
Kd [1]: 0.88 nM | Kd [2]: 10.1 nM | EC50 [3]: 1.06 nM

B7: PI-4026 (chimera) (antibody, human IgG1, V domains shown)
VH: QVQLQQSGPELVKPGTSVKMSCKASGYTFTDYVINWVKQRTGQGLEWIGEIYPGSGSTFYHEKFKGKATLTADKSSNTAYMQVSSLTSEDSAVYFCTRRMAAMDYWGQGTSVTVSS
VL: QIVLTQSPAIMSASLGEEITLTCSASSSVSYMHWYQQKSGTSPKLLLYTTSNLASGVPSRFSGTGSGTFYSLTISSVEAEDAADYYCHQWSGYPTFGGGTKLEIK
Kd [7]: 1.13 nM | Kd [8]: < 0.1 nM | EC50 [9]: 0.46 nM

B8: PI-4026-6 (antibody, IgG1, V domains shown)
VH: QVQLVQSGAEVKKPGASVKMSCKASGYTFTDYVINWVRQAPGQGLEWIGEIYPGSGSTFYAQKFQGRATLTADTSTSTAYMEVSSLRSEDTAVYYCTRRMAAMDYWGQGTLVTVSS
VL: DIQLTQSPSSLSASVGDRITLTCSASSSVSYMHWYQQKPGKAPKLLLYTTSNLASGVPSRFSGSGSGTDYTLTISSVQPEDFATYYCHQWSGYPTFGQGTKLEIK
Kd [7]: 1.55 nM | Kd [8]: < 0.1 nM | EC50 [9]: 0.26 nM

B9: PI-4026-2 (antibody, IgG1, V domains shown)
VH: QVQLVQSGAEVKKPGASVKVSCKASGYTFTDYVINWVRQAPGQGLEWMGEIYPGSGSTFYAQKFQGRVTMTADTSTSTVYMELSSLRSEDTAVYYCTRRMAAMDYWGQGTLVTVSS
VL: DIQLTQSPSSLSASVGDRVTITCSASSSVSYMHWYQQKPGKAPKLLLYTTSNLASGVPSRFSGSGSGTDYTLTISSLQPEDFATYYCHQWSGYPTFGQGTKLEIK
Kd [7]: 2.65 nM | Kd [8]: < 0.1 nM | EC50 [9]: 0.33 nM

B10: PI-4026-3 (antibody, IgG1, V domains shown)
VH: QVQLVQSGAEVKKPGASVKVSCKASGYTFTDYVINWVRQAPGQGLEWMGEIYPGSGSTFYAQKFQGRVTMTADTSTSTVYMELSSLRSEDTAVYYCTRRMAAMDYWGQGTLVTVSS
VL: DIQLTQSPSSLSASVGDRITLTCSASSSVSYMHWYQQKPGKAPKLLLYTTSNLASGVPSRFSGSGSGTDYTLTISSVQPEDFATYYCHQWSGYPTFGQGTKLEIK
Kd [7]: 2.42 nM | Kd [8]: < 0.1 nM | EC50 [9]: 0.3 nM

B11: PI-4026-4 (antibody, IgG1, V domains shown)
VH: QVQLVQSGAEVKKPGASVKVSCKASGYTFTDYVINWVRQAPGQGLEWMGEIYPGSGSTFYAQKFQGRVTMTADTSTSTVYMELSSLRSEDTAVYYCTRRMAAMDYWGQGTLVTVSS
VL: DIQLTQSPSSLSASVGDRITLTCSASSSVSYMHWYQQKPGKAPKLLLYTTSNLASGVPSRFSGSGSGTDYTLTISSVQPEDAATYYCHQWSGYPTFGQGTKLEIK
Kd [7]: 3.63 nM | Kd [8]: < 0.1 nM | EC50 [9]: 0.27 nM

B12: PI-4026-7 (antibody, IgG1, V domains shown)
VH: QVQLVQSGAEVKKPGASVKMSCKASGYTFTDYVINWVRQAPGQGLEWIGEIYPGSGSTFYAQKFQGRATLTADTSTSTAYMEVSSLRSEDTAVYYCTRRMAAMDYWGQGTLVTVSS
VL: DIQLTQSPSSLSASVGDRITLTCSASSSVSYMHWYQQKPGKAPKLLLYTTSNLASGVPSRFSGSGSGTDYTLTISSVQPEDAATYYCHQWSGYPTFGQGTKLEIK
Kd [7]: 2.31 nM | Kd [8]: < 0.1 nM | EC50 [9]: 0.19 nM

B13: PI-4026-8 (antibody, IgG1, V domains shown)
VH: QVQLVQSGAEVKKPGASVKMSCKASGYTFTDYVINWVRQAPGQGLEWIGEIYPGSGSTFYAQKFQGRATLTADKSTSTAYMEVSSLRSEDTAVYYCTRRMAAMDYWGQGTLVTVSS
VL: DIQLTQSPSSLSASVGDRVTITCSASSSVSYMHWYQQKPGKAPKLLLYTTSNLASGVPSRFSGSGSGTDYTLTISSLQPEDFATYYCHQWSGYPTFGQGTKLEIK
Kd [7]: 2.51 nM | Kd [8]: < 0.1 nM | EC50 [9]: 0.22 nM

B14: PI-4026-9 (antibody, IgG1, V domains shown)
VH: QVQLVQSGAEVKKPGASVKMSCKASGYTFTDYVINWVRQAPGQGLEWIGEIYPGSGSTFYAQKFQGRATLTADKSTSTAYMEVSSLRSEDTAVYYCTRRMAAMDYWGQGTLVTVSS
VL: DIQLTQSPSSLSASVGDRITLTCSASSSVSYMHWYQQKPGKAPKLLLYTTSNLASGVPSRFSGSGSGTDYTLTISSVQPEDFATYYCHQWSGYPTFGQGTKLEIK
Kd [7]: 2.83 nM | Kd [8]: < 0.1 nM | EC50 [9]: 0.17 nM

B15: PI-4026-10 (antibody, IgG1, V domains shown)
VH: QVQLVQSGAEVKKPGASVKMSCKASGYTFTDYVINWVRQAPGQGLEWIGEIYPGSGSTFYAQKFQGRATLTADKSTSTAYMEVSSLRSEDTAVYYCTRRMAAMDYWGQGTLVTVSS
VL: DIQLTQSPSSLSASVGDRITLTCSASSSVSYMHWYQQKPGKAPKLLLYTTSNLASGVPSRFSGSGSGTDYTLTISSVQPEDAATYYCHQWSGYPTFGQGTKLEIK
Kd [7]: 2.77 nM | Kd [8]: < 0.1 nM | EC50 [9]: 0.2 nM

B16: PI-4026-1 (antibody, IgG1, V domains shown)
VH: QVQLVQSGAEVKKPGASVKVSCKASGYTFTDYVINWVRQAPGQGLEWMGEIYPGSGSTFYAQKFQGRVTMTRDTSTSTVYMELSSLRSEDTAVYYCARRMAAMDYWGQGTLVTVSS
VL: DIQMTQSPSSLSASVGDRVTITCSASSSVSYMHWYQQKPGKAPKLLIYTTSNLASGVPSRFSGSGSGTDFTLTISSLQPEDFATYYCHQWSGYPTFGQGTKLEIK
EC50 [9]: 3.25 nM
